From patent US8821943B2, “Methods and compositions for targeted delivery of therapeutic agents” (Board of Regents of the University of Nebraska, priority 2006, dated 2014)

System: excised bovine nasal tissue (MTA, MTP, ITP regions)
Assay: Nanoparticle transport and uptake across excised bovine nasal tissue (Ussing chambers)
Assay type: in vitro ADME
Experimental: Transport studies were conducted in bovine nasal tissue. Bovine nasal tissue was obtained from freshly slaughtered cattle, and different regions (MTA, MTP, ITP) were prepared as described in Example 13. Nanoparticles coupled to deslorelin or transferring via aldehyde sulfate moieties were prepared as described in Example 3. The nanoparticle size was measured using a Zeta Plus Analyzer (Brookhaven Instruments Limited, UK). Particle size was analyzed before and after ligand conjugation in deionized filtered water.
The tissues were exposed to 5 ml of assay buffer with either peptide conjugated or plain nanoparticles on the donor side (mucosal or serosal surface). Assay buffer (5 ml) without particles was exposed to the receiver side (serosal or mucosal surface). The buffers used were pre-equilibrated to 37° C. or 4° C. […]
Nanoparticle Uptake: At the end of 4 hr in the above transport studies, the tissues exposed (1.78 cm^2) to the nanoparticle suspension were cut and washed thrice using 1 ml of assay buffer at pH 5. […] The homogenates were then centrifuged and the supernatant was analyzed.
Nanoparticle Transport and Uptake: Competition with Free Ligand: Similar to the transport and uptake studies mentioned above, the competition study was carried out using the modified Ussing chambers. […] The supernatants were analyzed to determine nanoparticle uptake. […]

In the case of “Transferrin-AS: transferrin-aldehyde sulphate-conjugated polystyrene nanoparticles”, the “uptake, times higher than plain nanoparticles” value is reported as 2.5 times.
